This note sets out measurements from ChEMBL document CHEMBL1145296, “Development of 6-substituted indolylquinolinones as potent Chek1 kinase inhibitors” (Bioorg Med Chem Lett, 2006).

Each structure is given as a SMILES string.

The IC50 is the concentration that gives 50% inhibition. A low value points to greater potency in that assay.

The test concerns the target T1, Serine/threonine-protein kinase Chk1 (Homo sapiens, UniProt O14757).
T1 sequence (O14757 whole entry): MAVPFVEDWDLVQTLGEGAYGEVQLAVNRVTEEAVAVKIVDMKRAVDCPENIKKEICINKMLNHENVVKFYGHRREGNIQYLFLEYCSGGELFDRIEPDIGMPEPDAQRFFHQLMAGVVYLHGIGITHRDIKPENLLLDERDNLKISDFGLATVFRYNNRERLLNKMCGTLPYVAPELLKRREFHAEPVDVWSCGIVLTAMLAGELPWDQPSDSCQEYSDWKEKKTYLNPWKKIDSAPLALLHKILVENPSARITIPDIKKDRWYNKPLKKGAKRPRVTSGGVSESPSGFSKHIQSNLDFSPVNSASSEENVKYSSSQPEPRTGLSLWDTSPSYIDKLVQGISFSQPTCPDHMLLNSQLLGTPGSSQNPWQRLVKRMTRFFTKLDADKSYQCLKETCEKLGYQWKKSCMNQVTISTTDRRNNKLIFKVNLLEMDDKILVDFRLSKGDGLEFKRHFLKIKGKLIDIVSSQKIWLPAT
Kind of test: Inhibition of human CHEK1.

In turn, `NCC1CCN(Cc2ccc3[nH]c(-c4cc5ccccc5[nH]c4=O)cc3c2)CC1` came in with an IC50 of 140 nM. On to `O=c1[nH]c2ccc(-c3cn[nH]c3)cc2cc1-c1cc2cc(CN3CCCCC3)ccc2[nH]1`, for which inhibition was half-maximal at 0.65 nM (IC50). Against the preceding compound, the IC50 is about 220-fold lower.
